Data reported in paper PMC6177439, “Peptide-oligonucleotide conjugates exhibiting pyrimidine-X cleavage specificity efficiently silence miRNA target acting synergistically with RNase H” (Scientific Reports, 2018).

Key:
[1] = Nuclease resistance (stability) in DMEM with fetal bovine serum; assay type: in vitro ADME
[2] = system: miR-17; assay: RNA cleavage assay, miR-17; assay type: biochemical; conditions: miR-17 1 µM, conjugate 30 µM, 37 °C
[3] = system: miR-21; assay: RNA cleavage assay, miR-21; assay type: biochemical; conditions: miR-21 1 µM, 37 °C
[4] = system: miR-21^hybrid; assay: RNA cleavage assay, miR-21^hybrid; assay type: biochemical; conditions: RNA 1 µM, conjugate 20 µM, 37 °C, 24 h time point
[5] = system: miR-21; assay: Gel-retardation assay, hybridization with miR-21; assay type: binding; conditions: at equimolar concentration and higher; miR-21 1 µM, 0.5-10 µM oligonucleotide or conjugate, 37 °C, 1 h, 50 mM Tris-HCl pH 7.0, 0.2 M KCl, 1 mM EDTA, 15% native PAAG

SMILES: Cc1cn([C@H]2C[C@H](OP(=O)(O)OC[C@H]3O[C@@H](n4ccc(N)nc4=O)C[C@@H]3OP(=O)(O)OC[C@H]3O[C@@H](n4cnc5c(N)ncnc54)C[C@@H]3OP(=O)(O)OC[C@H]3O[C@@H](n4cnc5c(N)ncnc54)C[C@@H]3OP(=O)(O)OCCOCCOCCOCCOP(=O)(O)OCCOCCOCCOCCOP(=O)(O)OC[C@H]3O[C@@H](n4cnc5c(N)ncnc54)C[C@@H]3OP(=O)(O)OC[C@H]3O[C@@H](n4cnc5c(=O)[nH]c(N)nc54)C[C@@H]3OP(=O)(O)OC[C@H]3O[C@@H](n4cc(C)c(=O)[nH]c4=O)C[C@@H]3OP(=O)(O)OC[C@H]3O[C@@H](n4ccc(N)nc4=O)C[C@@H]3OP(=O)(O)OC[C@H]3O[C@@H](n4cc(C)c(=O)[nH]c4=O)C[C@@H]3OP(=O)(O)OC[C@H]3O[C@@H](n4cnc5c(=O)[nH]c(N)nc54)C[C@@H]3OP(=O)(O)OC[C@H]3O[C@@H](n4cnc5c(N)ncnc54)C[C@@H]3OP(=O)(O)OC[C@H]3O[C@@H](n4cc(C)c(=O)[nH]c4=O)C[C@@H]3OP(=O)(O)OC[C@H]3O[C@@H](n4cnc5c(N)ncnc54)C[C@@H]3OP(=O)(O)OC[C@H]3O[C@@H](n4cnc5c(N)ncnc54)C[C@@H]3OP(=O)(O)OC[C@H]3O[C@@H](n4cnc5c(=O)[nH]c(N)nc54)C[C@@H]3OP(=O)(O)OC[C@H]3O[C@@H](n4ccc(N)nc4=O)C[C@@H]3OP(=O)(O)OC[C@H]3O[C@@H](n4cc(C)c(=O)[nH]c4=O)C[C@@H]3OP(=O)(O)OC[C@H]3O[C@@H](n4cnc5c(N)ncnc54)C[C@@H]3OP(=O)(O)OC[C@H]3O[C@@H](n4ccc(N)nc4=O)C[C@@H]3OP(=O)(O)OC[C@H]3O[C@@H](n4cnc5c(N)ncnc54)C[C@@H]3OP(=O)(O)OC[C@H]3O[C@@H](n4cnc5c(N)ncnc54)C[C@@H]3OP(=O)(O)OC[C@H]3O[C@@H](n4cnc5c(=O)[nH]c(N)nc54)C[C@@H]3OP(=O)(O)OC[C@H]3O[C@@H](n4cc(C)c(=O)[nH]c4=O)C[C@@H]3OP(=O)(O)OC[C@H]3O[C@@H](n4ccc(N)nc4=O)C[C@@H]3OP(=O)(O)OC[C@H]3O[C@@H](n4cnc5c(N)ncnc54)C[C@@H]3OP(=O)(O)OC[C@H]3O[C@@H](n4cnc5c(=O)[nH]c(N)nc54)C[C@@H]3OP(=O)(O)OC[C@H]3O[C@@H](n4ccc(N)nc4=O)C[C@@H]3OP(=O)(O)OC[C@H]3O[C@@H](n4cnc5c(=O)[nH]c(N)nc54)C[C@@H]3OP(=O)(O)OC[C@H]3O[C@@H](n4cnc5c(N)ncnc54)C[C@@H]3OP(=O)(O)OC[C@H]3O[C@@H](n4cnc5c(N)ncnc54)C[C@@H]3OP(=O)(O)OC[C@H]3O[C@@H](n4cnc5c(N)ncnc54)C[C@@H]3OP(=O)(O)OC[C@H]3O[C@@H](n4cnc5c(=O)[nH]c(N)nc54)C[C@@H]3OP(=O)(O)OC[C@H]3O[C@@H](n4ccc(N)nc4=O)C[C@@H]3OP(=O)(O)OC[C@H]3O[C@@H](n4cc(C)c(=O)[nH]c4=O)C[C@@H]3OP(=O)(O)OC[C@H]3O[C@@H](n4cnc5c(=O)[nH]c(N)nc54)C[C@@H]3OP(=O)(O)OC[C@H]3O[C@@H](n4cnc5c(N)ncnc54)C[C@@H]3OP(=O)(O)OC[C@H]3O[C@@H](n4ccc(N)nc4=O)C[C@@H]3OP(=O)(O)OC[C@H]3O[C@@H](n4cc(C)c(=O)[nH]c4=O)C[C@@H]3OP(=O)(O)OC[C@H]3O[C@@H](n4cc(C)c(=O)[nH]c4=O)C[C@@H]3OP(=O)(O)OC[C@H]3O[C@@H](n4cnc5c(=O)[nH]c(N)nc54)C[C@@H]3O)[C@@H](COP(=O)(O)N[C@@H](CC(C)C)C(=O)N[C@@H](CCCNC(=N)N)C(=O)N[C@@H](CC(C)C)C(=O)N[C@@H](CCCNC(=N)N)C(=O)N[C@@H](CC(C)C)C(=O)N[C@@H](CCCNC(=N)N)C(=O)N[C@@H](CC(C)C)C(=O)N[C@@H](CCCNC(=N)N)C(=O)NCC(N)=O)O2)c(=O)[nH]c1=O
- hydrolysis in serum-containing medium at 48 h ([1]; DMEM with 10% FBS, 37 °C, 0.1 µg/µl, 48 h, gel analysis): 20%
- time up to which stability was kept, 50% FBS ([1]; DMEM with 50% FBS, 12% polyacrylamide/8 M urea gel autoradiograph): up to 24 h
- time up to which stability was kept, 90% FBS ([1]; DMEM with 90% FBS, 12% polyacrylamide/8 M urea gel autoradiograph): up to 8 h
- non-complementary miR-17 cleaved during 24 h [2]: 90%
- cleavage of miR-21 at a 20-fold excess of conjugate ([3]; 20-fold excess of conjugate, 72 h, primary data not shown): ≤ 1%
- cleavage efficiency of miR-21 at a 100-fold excess of conjugate ([3]; conjugate 100 µM, 0-144 h): very slightly
- total extent of miR-21^hybrid cleavage at a 20-fold excess of conjugates [4]: 12%
- hybridization (binding) efficiency with miR-21 [5]: 77%
